{"source": "patent US12458581B2", "about": "“Carboxylic acid loaded salt carrier and the method for producing thereof” (priority 2021, dated 2025)", "data": [{"test": "pH measurement of 0.1 M aqueous solutions", "type": "physicochemical", "details": "0.1 M in millipore water, r.t., average of at least three measurements", "description": "For the pH measurements, a Seven2Go portable pH meter S2 (pH measuring-range: −2 to 20; resolution: 0.01) with an InLab Ultra Micro-ISM electrode (measuring range: pH −1 to pH 11; low temperature membrane glass type; ceramic diaphragm; reference system with Ag^+ ion trap by argenthal) as well as with an in-lab routine pH electrode (measuring range: pH 0 to pH 14; ceramic diaphragm; reference system with Ag^+ ion trap by argenthal) from Mettler-Toledo AG (Analytical, Switzerland) was used.\nFor sake of comparability, compounds of the same loading ratio n=2, which is 2:1 of the loaded carboxylic acid with respect to the carrier carboxylic acid, were selected for this analysis. […] The analytes were dissolved in millipore water, stirred for 5 minutes in an airtight vial to perform the pH measurements thereafter at r.t. All measurements were performed at 0.1 molar (M) concentration of the samples, which is 0.1 mol per liter (mol/L).\nFor sake of reliability, every result stated is the average of at least three single measurements. […] The numbers 1-73 (nr., first row) are used as an assignment for the 73 pairs, comprising the compound of invention (third row), the corresponding carrier carboxylic acid (fourth row) and the loaded carboxylic acid (fifth row), as used in the FIG. 6.", "values": [{"compound": "calcium citrate with loaded formic acid [CaCit-HFo [2]]", "pH values compound": 3.77}, {"compound": "magnesium aspartate with loaded salicylic acid [MgAsp-Sal [2]]", "pH values compound": 3.79}, {"compound": "calcium citrate with loaded acetic acid [CaCit-HAc [6]]", "pH values compound": 4.15}, {"compound": "CC(=O)O.CC(=O)O.CC(=O)O.CC(=O)O.CC(=O)O.O=C1OC(C(O)CO)C([O-])=C1O.O=C1OC(C(O)CO)C([O-])=C1O.[Ca+2]", "note": "(centres unmarked) [CaAsc-HAc [5]]", "pH values compound": 4.15}, {"compound": "calcium glutamate with loaded acetic acid [CaGlu-HAc [4]]", "pH values compound": 4.35}, {"compound": "magnesium glutamate with loaded lactic acid [MgGlu-HLac [2]]", "pH values compound": 4.00}, {"compound": "calcium citrate with loaded acetic acid [CaCit-HAc [2]]", "pH values compound": 4.77}]}, {"test": "Application as additive in liquid shaving soap", "details": "additive 1 or 2 % wt", "description": "The mix was stirred with hard soap pieces remaining undissolved and placed for 50 seconds at 600 W in a microwave oven. […] The mixture was placed for 80 seconds in a microwave at 600 W. Thereafter the resulting mixture was hand-blended and filled into a jar for testing and storage.", "values": [{"compound": "calcium citrate with loaded acetic acid [CaCit-HAc [2]]", "stability (>24 h)": "yes"}]}]}
